Measurements as given in ChEMBL document CHEMBL1833840, “RGD mimetics containing phthalimidine fragment as novel ligands of fibrinogen receptor” (Bioorg Med Chem Lett, 2011).

System: Platelet
Assay: Inhibition of ADP-induced platelet aggregation in human platelet rich plasma by Borns method
Type: functional
Summary of the method: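 Human platelet-rich plasma stimulated with ADP, with aggregation followed by Born's method.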

N=C(N)NCCC[C@H](N)C(=O)NCC(=O)N[C@@H](CC(=O)O)C(=O)N[C@@H](CO)C(=O)O
IC50: 31 µM
